According to PubChem BioAssay AID804 (SRMLSC, 2007):
The list shows a part of the results, in another mix than the full data. Active and inactive are the calls of the source.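 How the source made its calls: active means inhibition above a set limit, 3 SD over the mean compound inhibition (cut at about 44% in these data); inactive means the rest.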

Experiment: growth inhibitors of yeast BB579 in restrictive medium, primary screen, yeast lifespan-shortening project, S. cerevisiae (AID 804)
Settings: OD615, 48 h, at 10 µM, active compounds read high

Row | Structure (SMILES) | inhibition
1 | COc1ccc(OP(C)(=O)Nc2ccccc2Br)cc1 (centres undefined) | inactive: -4.71%
2 | COc1ccccc1OP(C)(=O)Nc1ccc(C)c(C)c1 (centres undefined) | inactive: -18.9%
3 | Cc1nc2ccc3ccccc3c2o1.O=[N+]([O-])c1cc([N+](=O)[O-])c(O)c([N+](=O)[O-])c1 | inactive: -37.2%
4 | CN(C)CCOC(=O)C(O)(c1ccccc1)C1CCCC1 (centres undefined) | inactive: -17.4%
5 | COc1ccc(OP(C)(=O)Nc2ccccn2)cc1 (centres undefined) | inactive: -19.8%
6 | Cc1c(NP(C)(=O)Oc2ccc(C(C)C)cc2)c(=O)n(-c2ccccc2)n1C (centres undefined) | inactive: 9.12%
7 | CCc1ccc(OP(C)(=O)O)cc1 | inactive: -23.7%
8 | COc1ccccc1OP(C)(=O)Nc1ccc(C)cc1C (centres undefined) | inactive: -29.6%
9 | CP(=O)(Nc1ccccn1)Oc1ccccc1 (centres undefined) | inactive: -0.51%
10 | COc1ccc(OP(C)(=O)Nc2ccc(Br)cc2)cc1 (centres undefined) | inactive: -11.2%
11 | CCN(CC)CC(O)COC(=O)C(O)(c1ccccc1)C1CCCCC1 (centres undefined) | inactive: -14.4%
12 | CP(=O)(Oc1ccccc1)N1CCOC1=O (centres undefined) | inactive: -1.18%
13 | CP(=O)(Nc1ccc(Cl)cc1)Oc1ccc(F)cc1 (centres undefined) | inactive: -25.4%
14 | CC(C)(C)c1ccc(OP(C)(=O)O)cc1 | inactive: -12.7%
15 | CP(=O)(OC12CC3CC(CC(C3)C1)C2)OC12CC3CC(CC(C3)C1)C2 | inactive: -22%
16 | CCOC(=O)c1ccc(NP(C)(=O)Oc2ccc(Cl)cc2)cc1 (centres undefined) | inactive: -23.6%
17 | COc1ccc(OP(C)(=O)Nc2cccc(Br)c2)cc1 (centres undefined) | inactive: -12.7%
18 | CN(C)CCOC(=O)C(O)(c1ccccc1)C1CCCCC1 (centres undefined) | inactive: -40.5%
19 | CCOP(C)(=S)SCC(=O)NC(C)(CC)C(=O)O (centres undefined) | inactive: -48.8%
20 | CP(=O)(Nc1ccc2c(c1)OCCO2)Oc1ccccc1 (centres undefined) | inactive: -9.96%
21 | Cc1ccccc1NP(C)(=O)Nc1ccccc1C | inactive: -24.6%
22 | CC(C)c1ccc(OP(C)(=O)Nc2ccc(SC(F)(F)F)cc2)cc1 (centres undefined) | inactive: -22.4%
23 | CP(=O)(Nc1ccccc1F)Oc1ccccc1 (centres undefined) | inactive: -29.2%
24 | O=C(OCCN1CCN(CCOCc2ccccc2)CC1)C(O)(c1ccccc1)c1ccccc1 | inactive: 4.3%
25 | CCOC(=O)c1ccc(NP(C)(=O)Oc2ccc(F)cc2)cc1 (centres undefined) | inactive: -14.8%

Row | Structure (SMILES) | inhibition
26 | CCN(CC)CCCOC(=O)C(O)(c1ccccc1)C1CCCCC1 (centres undefined) | inactive: -11.2%
27 | CP(=O)(Nc1ccccc1)Oc1ccc(F)cc1 (centres undefined) | inactive: -17.6%
28 | CC1=NCCc2c1[nH]c1ccccc21.O=[N+]([O-])c1cc([N+](=O)[O-])c(O)c([N+](=O)[O-])c1 | inactive: -41.6%
29 | Cc1cc(C)cc(OP(C)(=O)Nc2ccc(C)cc2C)c1 (centres undefined) | inactive: -9.2%
30 | CCOC(=O)c1ccc(NP(C)(=O)Oc2cc(C)cc(C)c2)cc1 (centres undefined) | inactive: 5.2%
31 | Cc1cc(C)cc(OP(C)(=O)Nc2ccccn2)c1 (centres undefined) | inactive: 2.56%
32 | Cc1ccc(C)c(NP(C)(=O)Oc2ccccc2)c1 (centres undefined) | inactive: -21.1%
33 | Cc1nc2ccc3ccccc3c2s1.O=[N+]([O-])c1cc([N+](=O)[O-])c(O)c([N+](=O)[O-])c1 | inactive: -2.31%
34 | COc1ccccc1OP(C)(=O)Nc1c(C)cccc1C (centres undefined) | inactive: -31.6%
35 | CN1CCCCC1COC(=O)C1(O)c2ccccc2CCc2ccccc21 (centres undefined) | inactive: -5.7%
36 | CP(=O)(Nc1ccc(SC(F)(F)F)cc1)Oc1ccccc1 (centres undefined) | inactive: -18.6%
37 | CP(=S)(Nn1cnnc1)Oc1ccccc1 (centres undefined) | inactive: -18.5%
38 | CP(=O)(Nc1ccccc1Br)Oc1ccccc1 (centres undefined) | inactive: 8.49%
39 | Cc1cccc(C)c1OP(C)(=O)Nc1ccc(SC(F)(F)F)cc1 (centres undefined) | inactive: -29.1%
40 | Cc1cc(C)cc(OP(C)(=O)Nc2ccc(SC(F)(F)F)cc2)c1 (centres undefined) | inactive: -39.7%
41 | CP(=O)(NC(=O)Nc1ccccc1)Oc1ccccc1 (centres undefined) | inactive: -36.5%
42 | CCOP(C)(=S)SCC(=O)NC(C)C(=O)O (centres undefined) | inactive: 12%
43 | CCOC(=O)c1ccc(NP(C)(=O)Oc2ccc(OC)cc2)cc1 (centres undefined) | inactive: -7.98%
44 | CP(=O)(Nc1ccccn1)Oc1ccc(Cl)cc1 (centres undefined) | inactive: -45.2%
45 | CC(C)(C)c1ccc(OP(C)(=O)Nc2ccc(SC(F)(F)F)cc2)cc1 (centres undefined) | inactive: -16.8%
46 | CCOC(=O)c1ccc(NP(C)(=O)Oc2ccccc2)cc1 (centres undefined) | inactive: -17.6%
47 | Cc1ccc(NP(C)(=O)Oc2ccccc2)c(C)c1 (centres undefined) | inactive: -62.8%
48 | COc1ccccc1OP(C)(=O)Nc1ccc(C)cc1 (centres undefined) | inactive: -9.95%
49 | COc1ccc(OP(C)(=O)Nc2cccc(F)c2)cc1 (centres undefined) | inactive: -21.1%
